Measured values taken from ChEMBL document CHEMBL1129802, “Novel phenyl nitrogen mustard and half-mustard derivatives of amidino-modified distamycin” (1997).

Legend:
[1] = species on record: Mus musculus; assay: In vitro test for cytotoxicity after 48 hr of continuous exposure against L1210 murine leukemia cells
[2] = species on record: Mus musculus; assay: Increase in median survival time of L1210 (murine leukemia) injected mice.
[3] = tested on: Mus musculus; assay: Optimal dose in mice (sub LD10 mg/kg).

Cn1cc(NC(=O)c2cc(NC(=O)c3cc(NC(=O)c4ccc(N(CCCl)CCCl)cc4)cn3C)cn2C)cc1C(=O)NCCC(N)=O
IC50 [1]: 0.13 µg/mL (≈ 0.186 µM)

CCN(CCCl)c1ccc(C(=O)Nc2cc(C(=O)Nc3cc(C(=O)Nc4cc(C(=O)NCCC(=N)N)n(C)c4)n(C)c3)n(C)c2)cc1.Cl
T/C [2]: 133%
IC50 [1]: 0.042 µg/mL

Cl.Cn1cc(NC(=O)c2cc(NC(=O)c3cc(NC(=O)c4ccc(N(CCCl)CCCl)cc4)cn3C)cn2C)cc1C(=O)NCCCc1ncc[nH]1
T/C [2]: 117%
IC50 [1]: 0.069 µg/mL

Cn1cc(NC(=O)c2cc(NC(=O)c3cc(NC(=O)c4ccc(N(CCCl)CCCl)cc4)cn3C)cn2C)cc1C(=O)NCCC#N
T/C [2]: 133%
IC50 [1]: 0.094 µg/mL (≈ 0.138 µM)

CNC(=N)CCNC(=O)c1cc(NC(=O)c2cc(NC(=O)c3cc(NC(=O)/C=C/c4ccc(N(CCCl)CCCl)cc4)cn3C)cn2C)cn1C.Cl
T/C [2]: 192%
IC50 [1]: 0.0039 µg/mL

CCN(CCCl)c1ccc(C(=O)Nc2cc(C(=O)Nc3cc(C(=O)Nc4cc(C(=O)NCCC(=N)NC#N)n(C)c4)n(C)c3)n(C)c2)cc1
T/C [2]: 267%
IC50 [1]: 0.363 µg/mL (≈ 0.527 µM)

CN(C)CCCNC(=O)c1cc(NC(=O)c2cc(NC(=O)c3cc(NC(=O)c4ccc(N(CCCl)CCCl)cc4)cn3C)cn2C)cn1C.Cl
T/C [2]: 100%
IC50 [1]: 1 µg/mL

Cl.Cn1cc(NC(=O)c2cc(NC(=O)c3cc(NC(=O)/C=C/c4ccc(N(CCCl)CCCl)cc4)cn3C)cn2C)cc1C(=O)NCCN=C(N)N
T/C [2]: 200%
IC50 [1]: 0.0074 µg/mL

Cn1cc(NC(=O)c2cc(NC(=O)c3cc(NC(=O)c4ccc(N(CCCl)CCCl)cc4)cn3C)cn2C)cc1C(=O)NCCCO
IC50 [1]: > 2 µg/mL

Cl.Cn1cc(NC(=O)c2cc(NC(=O)c3cc(NC(=O)c4ccc(N(CCCl)CCCl)cc4)cn3C)cn2C)cc1C(=O)NCCN=C(N)N
T/C [2]: 114%
IC50 [1]: 0.0644 µg/mL

Cl.Cn1cc(NC(=O)c2cc(NC(=O)c3cc(NC(=O)c4ccc(N(CCCl)CCCl)cc4)cn3C)cn2C)cc1C(=O)NCCC(=N)N
OD [3]: 3.13 mg/kg
IC50 [1]: 0.0503 µg/mL

Cl.Cn1cc(NC(=O)c2cc(NC(=O)c3cc(NC(=O)/C=C/c4ccc(N(CCCl)CCCl)cc4)cn3C)cn2C)cc1C(=O)NCCC(=N)N
IC50 [1]: 0.0072 µg/mL

CNC(=N)CCNC(=O)c1cc(NC(=O)c2cc(NC(=O)c3cc(NC(=O)c4ccc(N(CCCl)CCCl)cc4)cn3C)cn2C)cn1C.Cl
T/C [2]: 150%
IC50 [1]: 0.0385 µg/mL

Cn1cc(NC(=O)c2cc(NC(=O)c3cc(NC(=O)c4ccc(N(CCCl)CCCl)cc4)cn3C)cn2C)cc1C(=O)NCCC(=O)O
T/C [2]: 100%
IC50 [1]: 0.96 µg/mL (≈ 1.37 µM)

Cl.Cn1cc(NC(=O)c2cc(NC(=O)c3cc(NC(=O)c4ccc(N(CCCl)CCCl)cc4)cn3C)cn2C)cc1C(=O)NCCCC1=NCCN1
IC50 [1]: 0.143 µg/mL

CCN(CCCl)c1ccc(C(=O)Nc2cc(C(=O)Nc3cc(C(=O)Nc4cc(C(=O)NCCN=C(N)N)n(C)c4)n(C)c3)n(C)c2)cc1.Cl
T/C [2]: 158%
IC50 [1]: 0.0622 µg/mL

Cn1cc(NC(=O)c2cc(NC(=O)c3cc(NC(=O)/C=C/c4ccc(N(CCCl)CCCl)cc4)cn3C)cn2C)cc1C(=O)NCCC(=N)NO
T/C [2]: 150%
IC50 [1]: 0.0424 µg/mL (≈ 0.0573 µM)

Cn1cc(NC(=O)c2cc(NC(=O)c3cc(NC(=O)c4ccc(N(CCCl)CCCl)cc4)cn3C)cn2C)cc1C(=O)NCCC(=N)NC#N
T/C [2]: 129%
IC50 [1]: 0.0379 µg/mL (≈ 0.0524 µM)

Cn1cc(NC(=O)c2cc(NC(=O)c3cc(NC(=O)c4ccc(N(CCCl)CCCl)cc4)cn3C)cn2C)cc1C(=O)NCCC(=N)NN
T/C [2]: 136%
IC50 [1]: 0.738 µg/mL (≈ 1.04 µM)

Cn1cc(NC(=O)c2cc(NC(=O)c3cc(NC(=O)/C=C/c4ccc(N(CCCl)CCCl)cc4)cn3C)cn2C)cc1C(=O)NCCC(=N)NC#N
T/C [2]: 183%
IC50 [1]: 0.0054 µg/mL (≈ 0.00721 µM)

C/N=C(/CCNC(=O)c1cc(NC(=O)c2cc(NC(=O)c3cc(NC(=O)c4ccc(N(CCCl)CCCl)cc4)cn3C)cn2C)cn1C)NC.Cl
T/C [2]: 100%
IC50 [1]: 0.0365 µg/mL

CCN(CCCl)c1ccc(C(=O)Nc2cc(C(=O)Nc3cc(C(=O)Nc4cc(C(=O)NCCC(=N)NC)n(C)c4)n(C)c3)n(C)c2)cc1.Cl
T/C [2]: 129%
IC50 [1]: 0.0212 µg/mL

Cn1cc(NC(=O)c2cc(NC(=O)c3cc(NC(=O)c4ccc(N(CCCl)CCCl)cc4)cn3C)cn2C)cc1C(=O)NCCC(=N)NO
T/C [2]: 129%
IC50 [1]: 1.48 µg/mL (≈ 2.07 µM)

C/N=C(/CCNC(=O)c1cc(NC(=O)c2cc(NC(=O)c3cc(NC(=O)/C=C/c4ccc(N(CCCl)CCCl)cc4)cn3C)cn2C)cn1C)NC.Cl
T/C [2]: 100%
IC50 [1]: 0.0064 µg/mL

≈ marks a conversion by molar mass, not a printed value.
